Amino acid sequences for entries named in this document (tags omitted).
UniProt P15170, whole entry: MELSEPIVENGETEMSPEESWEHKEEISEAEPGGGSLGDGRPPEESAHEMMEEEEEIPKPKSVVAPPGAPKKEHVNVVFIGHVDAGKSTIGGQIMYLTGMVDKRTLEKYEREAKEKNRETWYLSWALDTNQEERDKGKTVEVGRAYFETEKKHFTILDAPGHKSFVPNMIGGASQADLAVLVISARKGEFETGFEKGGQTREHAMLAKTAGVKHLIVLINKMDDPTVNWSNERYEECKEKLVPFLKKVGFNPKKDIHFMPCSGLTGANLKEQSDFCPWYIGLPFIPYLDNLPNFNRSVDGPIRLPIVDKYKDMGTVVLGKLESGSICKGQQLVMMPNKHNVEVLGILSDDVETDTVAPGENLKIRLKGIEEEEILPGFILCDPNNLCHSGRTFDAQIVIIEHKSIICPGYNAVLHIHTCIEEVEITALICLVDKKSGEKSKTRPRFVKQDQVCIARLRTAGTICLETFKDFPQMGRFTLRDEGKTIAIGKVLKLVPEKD
UniProt Q96SW2, whole entry: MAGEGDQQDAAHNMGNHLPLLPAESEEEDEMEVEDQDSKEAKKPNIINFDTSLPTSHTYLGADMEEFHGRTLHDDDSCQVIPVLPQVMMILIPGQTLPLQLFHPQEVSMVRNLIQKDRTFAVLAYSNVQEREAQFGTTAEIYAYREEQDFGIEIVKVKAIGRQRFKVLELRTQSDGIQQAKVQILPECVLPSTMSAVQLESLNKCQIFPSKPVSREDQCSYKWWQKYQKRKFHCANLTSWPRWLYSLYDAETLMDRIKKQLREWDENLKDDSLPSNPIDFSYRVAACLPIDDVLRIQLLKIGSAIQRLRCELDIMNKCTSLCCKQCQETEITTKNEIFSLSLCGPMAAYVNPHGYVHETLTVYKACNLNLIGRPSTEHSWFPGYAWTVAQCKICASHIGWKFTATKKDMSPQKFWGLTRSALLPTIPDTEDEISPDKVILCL
UniProt Q13422, whole entry: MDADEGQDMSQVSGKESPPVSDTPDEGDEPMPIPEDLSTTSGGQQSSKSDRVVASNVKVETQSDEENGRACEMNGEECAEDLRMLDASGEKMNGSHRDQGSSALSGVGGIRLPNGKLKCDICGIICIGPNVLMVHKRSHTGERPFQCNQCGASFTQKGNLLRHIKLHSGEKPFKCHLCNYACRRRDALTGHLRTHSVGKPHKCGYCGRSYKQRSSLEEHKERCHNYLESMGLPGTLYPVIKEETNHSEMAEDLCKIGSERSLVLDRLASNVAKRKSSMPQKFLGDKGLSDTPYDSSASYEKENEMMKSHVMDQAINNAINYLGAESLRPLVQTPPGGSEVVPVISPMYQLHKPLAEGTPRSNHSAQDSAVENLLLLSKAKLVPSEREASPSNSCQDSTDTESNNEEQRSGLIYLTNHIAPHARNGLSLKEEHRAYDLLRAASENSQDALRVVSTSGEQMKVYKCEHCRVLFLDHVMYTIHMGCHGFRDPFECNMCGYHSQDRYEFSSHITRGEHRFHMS
UniProt P30291, whole entry: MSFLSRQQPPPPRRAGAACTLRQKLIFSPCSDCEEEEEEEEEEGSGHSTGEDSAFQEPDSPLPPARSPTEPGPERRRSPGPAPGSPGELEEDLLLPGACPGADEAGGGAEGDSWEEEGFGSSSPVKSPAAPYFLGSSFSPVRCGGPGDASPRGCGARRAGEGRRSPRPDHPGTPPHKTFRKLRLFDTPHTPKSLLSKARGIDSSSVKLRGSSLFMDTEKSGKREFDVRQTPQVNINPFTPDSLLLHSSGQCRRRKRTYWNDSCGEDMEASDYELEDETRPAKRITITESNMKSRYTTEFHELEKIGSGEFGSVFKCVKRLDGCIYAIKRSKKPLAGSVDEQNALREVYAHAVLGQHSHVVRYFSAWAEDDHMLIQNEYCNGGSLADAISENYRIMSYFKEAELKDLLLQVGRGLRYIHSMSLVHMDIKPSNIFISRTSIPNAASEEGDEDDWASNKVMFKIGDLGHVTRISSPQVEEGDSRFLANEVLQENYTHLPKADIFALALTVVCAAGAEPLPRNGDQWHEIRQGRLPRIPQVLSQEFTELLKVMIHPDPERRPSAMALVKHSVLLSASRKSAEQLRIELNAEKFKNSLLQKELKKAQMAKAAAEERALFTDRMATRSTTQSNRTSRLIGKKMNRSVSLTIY
UniProt Q9UKT9, whole entry: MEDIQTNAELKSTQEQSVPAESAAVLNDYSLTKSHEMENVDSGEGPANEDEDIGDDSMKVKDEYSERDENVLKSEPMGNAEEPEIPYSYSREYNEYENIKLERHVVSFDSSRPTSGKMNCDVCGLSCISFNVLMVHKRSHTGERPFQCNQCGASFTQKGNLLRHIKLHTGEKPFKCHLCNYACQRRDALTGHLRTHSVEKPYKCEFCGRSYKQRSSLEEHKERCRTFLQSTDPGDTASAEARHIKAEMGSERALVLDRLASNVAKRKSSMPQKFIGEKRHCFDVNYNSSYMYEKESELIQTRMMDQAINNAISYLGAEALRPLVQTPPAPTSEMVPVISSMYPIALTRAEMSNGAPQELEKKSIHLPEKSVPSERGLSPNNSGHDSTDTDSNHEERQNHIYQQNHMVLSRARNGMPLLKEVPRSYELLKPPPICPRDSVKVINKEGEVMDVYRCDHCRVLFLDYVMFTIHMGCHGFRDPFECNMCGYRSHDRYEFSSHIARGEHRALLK
UniProt P48729, whole entry: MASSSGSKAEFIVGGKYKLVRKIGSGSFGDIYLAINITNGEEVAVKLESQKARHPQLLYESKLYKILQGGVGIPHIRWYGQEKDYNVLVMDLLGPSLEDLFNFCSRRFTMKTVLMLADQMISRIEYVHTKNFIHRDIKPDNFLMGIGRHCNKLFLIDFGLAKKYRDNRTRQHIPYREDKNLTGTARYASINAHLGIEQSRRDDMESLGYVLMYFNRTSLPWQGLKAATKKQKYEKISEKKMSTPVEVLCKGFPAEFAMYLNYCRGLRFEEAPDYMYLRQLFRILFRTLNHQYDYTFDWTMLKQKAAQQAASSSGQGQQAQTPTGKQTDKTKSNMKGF
UniProt Q9UKS7, whole entry: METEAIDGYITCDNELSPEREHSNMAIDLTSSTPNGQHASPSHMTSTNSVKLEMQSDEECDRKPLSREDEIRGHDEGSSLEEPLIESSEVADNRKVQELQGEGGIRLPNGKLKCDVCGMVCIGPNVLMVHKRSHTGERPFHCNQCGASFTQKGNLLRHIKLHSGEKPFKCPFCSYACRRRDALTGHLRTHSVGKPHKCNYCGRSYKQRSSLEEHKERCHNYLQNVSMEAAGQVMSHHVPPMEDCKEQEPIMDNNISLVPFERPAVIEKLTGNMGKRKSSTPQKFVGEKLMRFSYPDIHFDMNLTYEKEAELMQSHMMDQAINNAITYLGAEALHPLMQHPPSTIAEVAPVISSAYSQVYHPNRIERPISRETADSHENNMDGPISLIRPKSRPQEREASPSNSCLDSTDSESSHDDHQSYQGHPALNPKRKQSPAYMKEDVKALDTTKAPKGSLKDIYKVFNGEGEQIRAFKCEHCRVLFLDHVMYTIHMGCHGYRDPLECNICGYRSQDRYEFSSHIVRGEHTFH
UniProt Q16531, whole entry partner: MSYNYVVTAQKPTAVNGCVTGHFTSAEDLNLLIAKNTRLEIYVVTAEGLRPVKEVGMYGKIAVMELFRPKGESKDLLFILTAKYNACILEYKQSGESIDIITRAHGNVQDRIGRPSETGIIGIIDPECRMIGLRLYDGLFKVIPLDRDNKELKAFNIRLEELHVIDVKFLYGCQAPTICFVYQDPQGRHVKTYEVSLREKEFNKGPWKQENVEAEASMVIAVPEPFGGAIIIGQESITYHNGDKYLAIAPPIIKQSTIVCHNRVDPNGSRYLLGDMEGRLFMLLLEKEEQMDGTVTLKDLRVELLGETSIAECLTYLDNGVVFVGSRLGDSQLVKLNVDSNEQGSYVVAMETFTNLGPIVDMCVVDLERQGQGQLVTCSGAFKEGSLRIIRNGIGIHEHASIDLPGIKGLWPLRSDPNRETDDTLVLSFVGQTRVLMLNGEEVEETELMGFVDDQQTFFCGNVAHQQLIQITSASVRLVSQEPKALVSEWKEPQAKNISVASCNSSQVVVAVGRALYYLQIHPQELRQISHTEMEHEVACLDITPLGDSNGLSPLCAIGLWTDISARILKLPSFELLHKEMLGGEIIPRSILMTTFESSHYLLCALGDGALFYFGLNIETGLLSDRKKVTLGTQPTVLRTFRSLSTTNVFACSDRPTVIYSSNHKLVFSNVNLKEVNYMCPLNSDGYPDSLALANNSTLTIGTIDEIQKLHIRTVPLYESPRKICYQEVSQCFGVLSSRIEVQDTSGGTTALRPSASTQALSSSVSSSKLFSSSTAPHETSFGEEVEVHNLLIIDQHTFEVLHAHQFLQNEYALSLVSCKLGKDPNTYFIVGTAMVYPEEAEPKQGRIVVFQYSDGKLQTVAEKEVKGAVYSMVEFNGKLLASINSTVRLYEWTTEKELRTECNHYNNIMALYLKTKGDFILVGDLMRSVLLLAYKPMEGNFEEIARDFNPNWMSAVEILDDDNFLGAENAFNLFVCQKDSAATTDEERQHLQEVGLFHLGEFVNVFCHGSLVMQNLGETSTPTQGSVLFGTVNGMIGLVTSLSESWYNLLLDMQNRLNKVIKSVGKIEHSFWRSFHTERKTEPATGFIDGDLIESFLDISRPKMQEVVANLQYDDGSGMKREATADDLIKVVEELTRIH

According to EP4834897A1, “COMPOUNDS WITH TWO AZAHETEROCYCLES SUBSTITUTED ISOINDOLINONE SKELETON AND USES THEREOF” (dated 2026):

What follows are molecules tested against GSPT1 (Homo sapiens, UniProt P15170+Q96SW2) (assay: Western blot assay of substrate protein degradation in hPBMCs). Settings: 24 hours treatment, compounds at 50 nM and 500 nM (concentration behind the class not stated).

| SMILES | substrate protein remaining % (GSPT1) |
| --- | --- |
| O=C1CCC(N2Cc3c(ccc(CN4CCC(N5CCC(c6noc7cc(F)ccc67)CC5)C(F)(F)C4)c3F)C2=O)C(=O)N1 (stereo not shown) | A (0% ≤ substrate protein remaining % ≤ 80%) |
| O=C1CCC(N2Cc3cc(CN4CCC(N5CCN(c6noc7cc(F)ccc67)CC5)C(F)(F)C4)ccc3C2=O)C(=O)N1 (stereo not shown) | A (0% ≤ substrate protein remaining % ≤ 80%) |
| CC1(C)CCC(CN2CCN(C3CCN(Cc4ccc5c(c4)CN(C4CCC(=O)NC4=O)C5=O)CC3(F)F)CC2)=C(c2ccc(Cl)cc2)C1 (stereo not shown) | A (0% ≤ substrate protein remaining % ≤ 80%) |
| O=C1CCC(N2Cc3cccc(CN4CCC(N5CCN(C(c6ccccc6)c6ccccc6)CC5)C(F)(F)C4)c3C2=O)C(=O)N1 (stereo not shown) | A (0% ≤ substrate protein remaining % ≤ 80%) |
| O=C1CCC(N2Cc3cc(CN4CCC(N5CCN(c6cccc(Cl)c6Cl)CC5)C(F)(F)C4)ccc3C2=S)C(=O)N1 (stereo not shown) | A (0% ≤ substrate protein remaining % ≤ 80%) |

Each molecule was assayed against IKZF1 (Homo sapiens, UniProt Q13422+Q96SW2) in the same assay as above. Settings: 24 hours treatment, compounds at 50 nM and 500 nM (concentration behind the class not stated).

| SMILES | substrate protein remaining % (IKZF 1) |
| --- | --- |
| O=C1CCC(N2Cc3c(ccc(CN4CCC(N5CCC(c6noc7cc(F)ccc67)CC5)C(F)(F)C4)c3F)C2=O)C(=O)N1 (stereo not shown) | A (0% ≤ substrate protein remaining % ≤ 80%) |
| O=C1CCC(N2Cc3cc(CN4CCC(N5CCN(c6noc7cc(F)ccc67)CC5)C(F)(F)C4)ccc3C2=O)C(=O)N1 (stereo not shown) | B (80%< substrate protein remaining %≤ 100%) |
| CC1(C)CCC(CN2CCN(C3CCN(Cc4ccc5c(c4)CN(C4CCC(=O)NC4=O)C5=O)CC3(F)F)CC2)=C(c2ccc(Cl)cc2)C1 (stereo not shown) | B (80%< substrate protein remaining %≤ 100%) |
| O=C1CCC(N2Cc3cccc(CN4CCC(N5CCN(C(c6ccccc6)c6ccccc6)CC5)C(F)(F)C4)c3C2=O)C(=O)N1 (stereo not shown) | B (80%< substrate protein remaining %≤ 100%) |
| O=C1CCC(N2Cc3cc(CN4CCC(N5CCN(c6cccc(Cl)c6Cl)CC5)C(F)(F)C4)ccc3C2=S)C(=O)N1 (stereo not shown) | A (0% ≤ substrate protein remaining % ≤ 80%) |

Each molecule was assayed against WEE1 (Homo sapiens, UniProt P30291+Q96SW2) in the same assay as above. Settings: 24 hours treatment, compounds at 50 nM and 500 nM (concentration behind the class not stated).

| SMILES | substrate protein remaining % (WEE1) |
| --- | --- |
| O=C1CCC(N2Cc3c(ccc(CN4CCC(N5CCC(c6noc7cc(F)ccc67)CC5)C(F)(F)C4)c3F)C2=O)C(=O)N1 (stereo not shown) | B (80%< substrate protein remaining %≤ 100%) |
| O=C1CCC(N2Cc3cc(CN4CCC(N5CCN(c6noc7cc(F)ccc67)CC5)C(F)(F)C4)ccc3C2=O)C(=O)N1 (stereo not shown) | B (80%< substrate protein remaining %≤ 100%) |
| CC1(C)CCC(CN2CCN(C3CCN(Cc4ccc5c(c4)CN(C4CCC(=O)NC4=O)C5=O)CC3(F)F)CC2)=C(c2ccc(Cl)cc2)C1 (stereo not shown) | B (80%< substrate protein remaining %≤ 100%) |
| O=C1CCC(N2Cc3cccc(CN4CCC(N5CCN(C(c6ccccc6)c6ccccc6)CC5)C(F)(F)C4)c3C2=O)C(=O)N1 (stereo not shown) | A (0% ≤ substrate protein remaining % ≤ 80%) |
| O=C1CCC(N2Cc3cc(CN4CCC(N5CCN(c6cccc(Cl)c6Cl)CC5)C(F)(F)C4)ccc3C2=S)C(=O)N1 (stereo not shown) | A (0% ≤ substrate protein remaining % ≤ 80%) |

The molecules below were run against IKZF3 (Homo sapiens, UniProt Q96SW2+Q9UKT9) in the same assay as above. Settings: 24 hours treatment, compounds at 50 nM and 500 nM (concentration behind the class not stated).

| SMILES | substrate protein remaining % (IKZF3) |
| --- | --- |
| O=C1CCC(N2Cc3c(ccc(CN4CCC(N5CCC(c6noc7cc(F)ccc67)CC5)C(F)(F)C4)c3F)C2=O)C(=O)N1 (stereo not shown) | A (0% ≤ substrate protein remaining % ≤ 80%) |
| O=C1CCC(N2Cc3cc(CN4CCC(N5CCN(c6noc7cc(F)ccc67)CC5)C(F)(F)C4)ccc3C2=O)C(=O)N1 (stereo not shown) | A (0% ≤ substrate protein remaining % ≤ 80%) |
| CC1(C)CCC(CN2CCN(C3CCN(Cc4ccc5c(c4)CN(C4CCC(=O)NC4=O)C5=O)CC3(F)F)CC2)=C(c2ccc(Cl)cc2)C1 (stereo not shown) | B (80%< substrate protein remaining %≤ 100%) |
| O=C1CCC(N2Cc3cccc(CN4CCC(N5CCN(C(c6ccccc6)c6ccccc6)CC5)C(F)(F)C4)c3C2=O)C(=O)N1 (stereo not shown) | B (80%< substrate protein remaining %≤ 100%) |
| O=C1CCC(N2Cc3cc(CN4CCC(N5CCN(c6cccc(Cl)c6Cl)CC5)C(F)(F)C4)ccc3C2=S)C(=O)N1 (stereo not shown) | B (80%< substrate protein remaining %≤ 100%) |

These molecules were tested against CK1α (Homo sapiens, UniProt P48729+Q96SW2) in the same assay as above. Settings: 24 hours treatment, compounds at 50 nM and 500 nM (concentration behind the class not stated).

| SMILES | substrate protein remaining % (CK1a) |
| --- | --- |
| O=C1CCC(N2Cc3c(ccc(CN4CCC(N5CCC(c6noc7cc(F)ccc67)CC5)C(F)(F)C4)c3F)C2=O)C(=O)N1 (stereo not shown) | B (80%< substrate protein remaining %≤ 100%) |
| O=C1CCC(N2Cc3cc(CN4CCC(N5CCN(c6noc7cc(F)ccc67)CC5)C(F)(F)C4)ccc3C2=O)C(=O)N1 (stereo not shown) | B (80%< substrate protein remaining %≤ 100%) |
| CC1(C)CCC(CN2CCN(C3CCN(Cc4ccc5c(c4)CN(C4CCC(=O)NC4=O)C5=O)CC3(F)F)CC2)=C(c2ccc(Cl)cc2)C1 (stereo not shown) | B (80%< substrate protein remaining %≤ 100%) |
| O=C1CCC(N2Cc3cccc(CN4CCC(N5CCN(C(c6ccccc6)c6ccccc6)CC5)C(F)(F)C4)c3C2=O)C(=O)N1 (stereo not shown) | B (80%< substrate protein remaining %≤ 100%) |
| O=C1CCC(N2Cc3cc(CN4CCC(N5CCN(c6cccc(Cl)c6Cl)CC5)C(F)(F)C4)ccc3C2=S)C(=O)N1 (stereo not shown) | B (80%< substrate protein remaining %≤ 100%) |

What follows are molecules tested against IKZF2 (Homo sapiens, UniProt Q96SW2+Q9UKS7) in the same assay as above. Settings: 24 hours treatment, compounds at 50 nM and 500 nM (concentration behind the class not stated).

| SMILES | substrate protein remaining % (IKZF2) |
| --- | --- |
| O=C1CCC(N2Cc3c(ccc(CN4CCC(N5CCC(c6noc7cc(F)ccc67)CC5)C(F)(F)C4)c3F)C2=O)C(=O)N1 (stereo not shown) | A (0% ≤ substrate protein remaining % ≤ 80%) |
| O=C1CCC(N2Cc3cc(CN4CCC(N5CCN(c6noc7cc(F)ccc67)CC5)C(F)(F)C4)ccc3C2=O)C(=O)N1 (stereo not shown) | B (80%< substrate protein remaining %≤ 100%) |
| CC1(C)CCC(CN2CCN(C3CCN(Cc4ccc5c(c4)CN(C4CCC(=O)NC4=O)C5=O)CC3(F)F)CC2)=C(c2ccc(Cl)cc2)C1 (stereo not shown) | B (80%< substrate protein remaining %≤ 100%) |
| O=C1CCC(N2Cc3cccc(CN4CCC(N5CCN(C(c6ccccc6)c6ccccc6)CC5)C(F)(F)C4)c3C2=O)C(=O)N1 (stereo not shown) | B (80%< substrate protein remaining %≤ 100%) |
| O=C1CCC(N2Cc3cc(CN4CCC(N5CCN(c6cccc(Cl)c6Cl)CC5)C(F)(F)C4)ccc3C2=S)C(=O)N1 (stereo not shown) | B (80%< substrate protein remaining %≤ 100%) |

What follows are molecules tested against CRBN (Homo sapiens, UniProt Q96SW2) (assay: CRBN binding affinity by HTRF (CEREBLON BINDING kit)). Settings: CRBN binding, HTRF, compound at 0.5 µM.

| SMILES | Inhibition Rate at 0.5 µM (%) |
| --- | --- |
| O=C1CCC(N2Cc3ccc(CN4CCC(N5CCN(c6noc7cc(F)ccc67)CC5)CC4)cc3C2=O)C(=O)N1 (stereo not shown) | a2 (20% < a2 ≤ 30%) |
| O=C1CCC(N2Cc3cc(CN4CCC(N5CCN(c6cccc(Cl)c6Cl)CC5)C(F)(F)C4)ccc3C2=S)C(=O)N1 (stereo not shown) | a4 (40% < a4 ≤ 53%) |

Same assay, conditions: CRBN binding, HTRF, compound at 2 µM

| SMILES | Inhibition Rate at 2 µM (%) |
| --- | --- |
| O=C1CCC(N2Cc3ccc(CN4CCC(N5CCN(c6noc7cc(F)ccc67)CC5)CC4)cc3C2=O)C(=O)N1 (stereo not shown) | a5 (53% < a5 ≤ 60%) |
| O=C1CCC(N2Cc3cc(CN4CCC(N5CCN(c6cccc(Cl)c6Cl)CC5)C(F)(F)C4)ccc3C2=S)C(=O)N1 (stereo not shown) | a8 (80% < a8 ≤100%) |

Same assay, conditions: read-out: HTRF IC50; human Cereblon WT GST-tagged protein; 3 hours at room temperature

| SMILES | IC50 |
| --- | --- |
| O=C1CCC(N2Cc3cc(CN4CCC(N5CCN(c6noc7cc(F)ccc67)CC5)C(F)(F)C4)ccc3C2=O)C(=O)N1 (stereo not shown) | 0.1 to 0.5 µM |
| CC1(C)CCC(CN2CCN(C3CCN(Cc4ccc5c(c4)CN(C4CCC(=O)NC4=O)C5=O)CC3(F)F)CC2)=C(c2ccc(Cl)cc2)C1 (stereo not shown) | 1 to 1.5 µM |

What follows are molecules tested on Human myeloid monocytic leukemia cell (MV-4-11) (assay: Tumor cell proliferation inhibition (cell viability assay)). Settings: MV-4-11 cells; 10 nM; 96 hours.

| SMILES | Inhibition Rate at 10 nM (%) |
| --- | --- |
| O=C1CCC(N2Cc3ccc(CN4CCC(N5CCN(c6noc7cc(F)ccc67)CC5)CC4)cc3C2=O)C(=O)N1 (stereo not shown) | 1a6 (40% < 1a6 < 50%) |

Same assay, conditions: MV-4-11 cells; 500 nM; 96 hours

| SMILES | Inhibition Rate at 500 nM (%) |
| --- | --- |
| O=C1CCC(N2Cc3ccc(CN4CCC(N5CCN(c6noc7cc(F)ccc67)CC5)CC4)cc3C2=O)C(=O)N1 (stereo not shown) | 1a7 (50% ≤ 1a7 < 60%) |

Each molecule was assayed on Human multiple myeloma cell (MM.1S) in the same assay as above. Settings: MM.1S cells; 10 nM; 96 hours.

| SMILES | Inhibition Rate at 10 nM (%) |
| --- | --- |
| O=C1CCC(N2Cc3ccc(CN4CCC(N5CCN(c6noc7cc(F)ccc67)CC5)CC4)cc3C2=O)C(=O)N1 (stereo not shown) | 1b10 (80% ≤ 1b10 ≤ 100%) |
| O=C1CCC(N2Cc3c(ccc(CN4CCC(N5CCC(c6noc7cc(F)ccc67)CC5)C(F)(F)C4)c3F)C2=O)C(=O)N1 (stereo not shown) | 1b9 (70% ≤ 1b9 < 80%) |
| O=C1CCC(N2Cc3cc(CN4CCC(N5CCN(c6cccc(Cl)c6Cl)CC5)C(F)(F)C4)ccc3C2=S)C(=O)N1 (stereo not shown) | 1b6 (42% ≤ 1b6 < 50%) |

Same assay, conditions: MM.1S cells; 500 nM; 96 hours

| SMILES | Inhibition Rate at 500 nM (%) |
| --- | --- |
| O=C1CCC(N2Cc3ccc(CN4CCC(N5CCN(c6noc7cc(F)ccc67)CC5)CC4)cc3C2=O)C(=O)N1 (stereo not shown) | 1b10 (80% ≤ 1b10 ≤ 100%) |
| O=C1CCC(N2Cc3c(ccc(CN4CCC(N5CCC(c6noc7cc(F)ccc67)CC5)C(F)(F)C4)c3F)C2=O)C(=O)N1 (stereo not shown) | 1b9 (70% ≤ 1b9 < 80%) |
| O=C1CCC(N2Cc3cc(CN4CCC(N5CCN(c6cccc(Cl)c6Cl)CC5)C(F)(F)C4)ccc3C2=S)C(=O)N1 (stereo not shown) | 1b7 (50% ≤ 1b7 < 60%) |

Same assay, conditions: read-out: Inhibitory activity against tumor cells proliferation (IC50, nM) MM.1S; MM.1S cells; 96 hours

| SMILES | IC50 |
| --- | --- |
| O=C1CCC(N2Cc3cc(CN4CCC(N5CCN(c6noc7cc(F)ccc67)CC5)C(F)(F)C4)ccc3C2=O)C(=O)N1 (stereo not shown) | 100 to 200 nM |

Each molecule was assayed on IL-2 (assay: Inflammatory cytokine release from PBMCs induced by PHA (flow cytometry CBA)). Settings: 0.1 µM; PBMCs, PHA 1 µg/mL, 24 h.

| SMILES | Inhibition Rate (%) IL-2 |
| --- | --- |
| CC1(C)CCC(CN2CCN(C3CCN(Cc4ccc5c(c4)CN(C4CCC(=O)NC4=O)C5=O)CC3(F)F)CC2)=C(c2ccc(Cl)cc2)C1 (stereo not shown) | IV9 (40% < IV9 ≤ 50%) |
| O=C1CCC(N2Cc3cccc(CN4CCC(N5CCN(C(c6ccccc6)c6ccccc6)CC5)C(F)(F)C4)c3C2=O)C(=O)N1 (stereo not shown) | IV9 (40% < IV9 ≤ 50%) |

Same assay, conditions: 1 µM; PBMCs, PHA 1 µg/mL, 24 h

| SMILES | Inhibition Rate (%) IL-2 |
| --- | --- |
| CC1(C)CCC(CN2CCN(C3CCN(Cc4ccc5c(c4)CN(C4CCC(=O)NC4=O)C5=O)CC3(F)F)CC2)=C(c2ccc(Cl)cc2)C1 (stereo not shown) | IV7 (20% < IV7 ≤ 30%) |
| O=C1CCC(N2Cc3cccc(CN4CCC(N5CCN(C(c6ccccc6)c6ccccc6)CC5)C(F)(F)C4)c3C2=O)C(=O)N1 (stereo not shown) | IV9 (40% < IV9 ≤ 50%) |
